pEC50, pKi: −log10 of the molar value.

The chains behind the UniProt entries cited, without tags or fusion partners. Residues count along the entry.
UniProt P28335, 33-458: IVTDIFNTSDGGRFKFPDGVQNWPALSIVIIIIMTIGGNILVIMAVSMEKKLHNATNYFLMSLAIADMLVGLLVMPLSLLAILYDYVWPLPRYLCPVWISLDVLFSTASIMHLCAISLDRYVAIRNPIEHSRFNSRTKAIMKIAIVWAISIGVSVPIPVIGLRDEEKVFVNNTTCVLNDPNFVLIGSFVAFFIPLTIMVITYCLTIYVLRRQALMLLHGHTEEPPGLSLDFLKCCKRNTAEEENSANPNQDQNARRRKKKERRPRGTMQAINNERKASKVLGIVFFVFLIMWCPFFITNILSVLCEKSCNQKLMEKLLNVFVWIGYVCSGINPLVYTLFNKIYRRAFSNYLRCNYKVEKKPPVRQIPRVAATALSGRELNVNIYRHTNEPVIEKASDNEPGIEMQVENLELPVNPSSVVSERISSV

For assay [1], the target named is T1, human 5-hydroxytryptamine-2C (h5-HT2C) receptor (Homo sapiens, UniProt P28335).
T1 construct: expressed in transfected cells; host or cells: CHO (Chinese Hamster Ovary) cells; membranes
Nature of the assay: [125I]DOI binding affinity at h5-HT2C receptor, CHO cell membranes. The conditions noted are these: reference compounds; [125I]DOI displacement, CHO membranes expressing h5-HT2C; read-out: Ki (95% confidence interval).

The next assay addresses human 5-HT2C receptor (Homo sapiens, UniProt P28335). Nature of the assay: 5-HT2C receptor-stimulated calcium mobilization (FLIPR) in CHO cells. Conditions: reference compounds, CHO cells expressing human 5-HT2C. It is filed as cell-based.

As to `Clc1cccc(N2CCNCC2)c1` [mCPP, meta-chlorophenylpiperazine, reference compound], in assay [1], the pKi was 8.19. Also, the pEC50 at human 5-HT2C receptor is 8.27.

These data come from US7728155B2, “Dihydrobenzofuranyl alkanamines and methods for using same as cns agents” (Wyeth LLC, priority 2003, dated 2010).
